Our source for the IC50 values is patent US11866405B2, “Substituted indazoles as IRAK4 inhibitors” (AstraZeneca AB, priority 2020, dated 2024).

Protein sequences, listed by entry. Tags and fused reporters are not part of them.
UniProt Q9NWZ3, whole entry: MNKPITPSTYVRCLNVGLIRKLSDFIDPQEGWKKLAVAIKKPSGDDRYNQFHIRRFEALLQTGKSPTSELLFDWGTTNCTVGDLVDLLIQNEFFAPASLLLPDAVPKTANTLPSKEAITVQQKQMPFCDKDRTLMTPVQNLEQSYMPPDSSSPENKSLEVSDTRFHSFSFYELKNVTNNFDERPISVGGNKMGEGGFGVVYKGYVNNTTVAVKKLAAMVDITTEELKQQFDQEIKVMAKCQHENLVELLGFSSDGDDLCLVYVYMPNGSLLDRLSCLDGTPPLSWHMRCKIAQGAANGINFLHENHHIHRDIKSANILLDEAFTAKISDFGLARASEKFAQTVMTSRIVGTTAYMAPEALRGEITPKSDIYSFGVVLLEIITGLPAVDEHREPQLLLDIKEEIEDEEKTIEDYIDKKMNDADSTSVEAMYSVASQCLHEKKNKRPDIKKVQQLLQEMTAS

The target of test [1] is IRAK4 auto-phosphorylation (Homo sapiens (Human), UniProt Q9NWZ3). Description: IRAK4 phosphorylation cell assay in IL-1β-stimulated Karpas-299 cells. Conditions: read-out: IRAK4 Cell IC50, IL-1β 22.7 ng/mL, pIRAK4 (Thr345/Ser346), geometric mean of at least 2 experiments. The method, then:
IRAK4 Phosphorylation Cell Assay
The activation of IRAK4 by TLR or IL-1R ligands leads to IRAK4 auto-phosphorylation, which can be prevented by IRAK4 kinase inhibitors. The effect of IRAK4 inhibitor compounds on IRAK4 auto-phosphorylation was assessed in IL-1β-stimulated Karpas-299 cells as a measurement of cellular potency. Karpas-299 cells were cultured in RPMI 1640 (Gibco 61870-010) containing 10% FBS (Gibco #10270). Cells were plated at 2×10^4 cells per well in poly-D-lysine coated 384 well plates (Corning #356663) to which compounds had been added at various concentrations (10 point half log dose response with a final top concentration of 30 μM) using an Echo 655 (Labcyte Inc). Cells were centrifuged (250 g, 4 mins), incubated at 37° C. for 1 h, then stimulated with 22.7 ng/mL recombinant IL-1β (R&D Systems, #201-LB-025) at 37° C. for 10 mins, followed by fixation in 4% paraformaldehyde for 10 mins and permeabilization in ice-cold 70% MeOH for 30 mins. Cells were washed twice with phosphate-buffered saline (PBS) on a BlueWasher (BlueCatBio) then blocked with PBS containing 10% FBS for 20 mins. […] Images were analysed in Columbus (PerkinElmer) and the fluorescence intensity per cell from the secondary antibody was quantified. The quantified data were analysed in Genedata Screener 15 (Genedata AG). […]

Test [2] deals with human recombinant IRAK4 protein (Homo sapiens (Human), UniProt Q9NWZ3). Description: IRAK4 enzyme assay (mass spectrometry readout). Conditions: read-out: IRAK4 Enzyme IC50; 3 mM ATP, 0.2 nM enzyme; geometric mean of at least n=2, * single experiment. The method, then: Potency of IRAK4 Inhibitor Compounds in IRAK4 Enzyme Assay
The inhibitory activity of compounds against IRAK4 were determined in an enzymatic assay using mass spectrometry readout. Ten point half-log compound concentration response curves, with a top concentration of 1 μM or 10 μM, were generated from 10 mM stocks of compound solubilized in DMSO using an Echo 655 (Labcyte Inc) and added to 384 well assay plates (Greiner #781280). To the assay plates, 10 μL of human recombinant IRAK4 protein (Life Technologies #PV4002) diluted to a final concentration of 0.2 nM in assay buffer (50 mM Tris-HCl pH 7.4, 10 mM MgCl, 5 mM glutathione, 0.01% BSA, 3 mM ATP) was added. The enzyme was incubated with the compounds at room temperature for 15 minutes before a peptide substrate ([…], Innovagen custom synthesis, 10 mM in DMSO) was added to each well to a final concentration of 10 μM using an Echo 655 (Labcyte Inc). After two hours at room temperature, the reaction was stopped with 90 μL of 0.4% formic acid (Merck #33015). The unphosphorylated and phosphorylated peptide were measured by LC-MS/MS on a Waters TQ-S mass spectrometer. Peaks were integrated using the TargetLynx software and the ratios between phosphorylated and unphosphorylated peptides were calculated. Curves were fitted and compound potencies determined in Genedata Screener 15 (Genedata AG). […]

The test system of test [3] is IL-1β stimulated IL-8 release in hTHP1 cells. Description: IL-1β-induced IL-8 release in human THP-1 monocyte cell line. The settings on record: read-out: hTHP1, IL1β stim, IL8 release red. IC50; THP-1 cells, IL-1β 1.8 ng/mL, 18 h; geometric mean of at least n=2, * n = 1. The method, then:
Effect of IRAK4 Inhibitors on IL-1β-Induced Cytokine Release in Human THP-1 Monocyte Cell Line
THP-1 cells were cultured in RPMI 1640 (Gibco 72400-021) containing 10% FBS (Gibco 10270-106), 1 mM Na-pyruvate (Gibco 11360-070) and 100 U/mL Penicillin-Streptomycin (Gibco 15140-122). Cells were plated at 5×10^4 cells per well in 384 well Echo certified plates (Labcyte PPT-0200) to which compounds had been added at various concentrations (10 point half log dose response with a final top concentration of 10 μM) using an Echo 655 (Labcyte Inc). The plate was incubated for 1 h at 37° C., then recombinant […] (R&D Systems 201-LB-025/CF) was added to a final concentration of 1.8 ng/mL. The plates were incubated at 37° C. for 18h. The plates were centrifuged at 250×g for four minutes, then 1.6 μL of the cell supernatant was transferred to a white low volume 384 well plate (Greiner #784075) using acoustic dispensing on an Echo 655. […] Afterwards, 200 nL of donor bead solution (5 mg/mL) was added, the plate sealed and briefly centrifuged, then incubated for 1 h before being read on an Envision plate reader to allow determination the concentration of IRAK4 inhibitor required to effect a 50% reduction in the amount of IL-8 released following IL-1β stimulation in THP1 cells (Table 2). The quantified data were analysed in Genedata Screener 15 (Genedata AG). […]

Molecules are shown by their SMILES.

Consider `COc1cc2nn(C3CCC4(CCC(=O)N4C)CC3)cc2cc1C(=O)Nc1cnn2cccnc12` (single isomer, unassigned) [Example 11], for which the IC50 in test [1] was more than 30000 nM; in test [2], more than 1010 nM.
For the molecule `COc1cc2nn(C3CCC4(CCC(=O)N4C)CC3)cc2cc1C(=O)Nc1cnn2cccnc12` (single isomer, unassigned) [Example 12], the results for the IC50 in test [1], in test [2] and in test [3] were 33 nM, 1 nM and 29 nM, respectively.
